From PMC12501026 come the findings set out here.

The chains are these.
B1: Flag-Histone H1.5 [human] / IκBα [human (endogenous in DB)] (parent)
chain 1: MSETAPAETATPAPVEKSPAKKKATKKAAGAGAAKRKATGPPVSELITKAVAASKERNGLSLAALKKALAAGGYDVEKNNSRIKLGLKSLVSKGTLVQTKGTGASGSFKLNKKAASGEAKPKAKKAGAAKAKKPAGATPKKAKKAAGAKKAVKKTPKKAKKPAAAGVKKVAKSPKKAKAAAKPKKATKSPAKPKAVKPKAAKPKAAKPKAAKPKAAKAKKAAAKKK
chain 2: MFQAAERPQEWAMEGPRDGLKKERLLDDRHDSGLDSMKDEEYEQMVKELQEIRLEPQEVPRGSEPWKQQLTEDGDSFLHLAIIHEEKALTMEVIRQVKGDLAFLNFQNNLQQTPLHLAVITNQPEIAEALLGAGCDPELRDFRGNTPLHLACEQGCLASVGVLTQSCTTPHLHSILKATNYNGHTCLHLASIHGYLGIVELLVSLGADVNAQEPCNGRTALHLAVDLQNPDLVSLLLKCGADVNRVTYQGYSPYQLTWGRPSTRIQQQLGQLTLENLQMLPESEDEESYDTESEFTEFTEDELPYDDCVFGGQRLTL

In this test the parent is B1. In words: co-immunoprecipitation (Flag IP, western blot band quantification). The settings on record: with IκBα [human (endogenous in DB)]; Chidamide (800nM); parent: 1.1; read off a plot.
Take chain 1 K88R: the response came out at 0.98. To chain 1 K93R belongs 0.37; to chain 1 K49R, 1. For the variant chain 1 K67R, the response came to 0.44.

Take chain 1 K37R: the response came to 1.1.
